Literature values as cited in publication PMC9698716, “From Serendipity to Rational Identification of the 5,6,7,8-Tetrahydrobenzo[4,5]thieno[2,3-d]pyrimidin-4(3H)-one Core as a New Chemotype of AKT1 Inhibitors for Acute Myeloid Leukemia” (Pharmaceutics, 2022).

Tested on: AKT2
Set-up: method as in PMID 33995085
Settings: ref [51]; cited from earlier work

CC(C)NC[C@@H](C(=O)N1CCN(c2ncnc3c2[C@H](C)C[C@H]3O)CC1)c1ccc(Cl)cc1 [ipatasertib]
IC50: 18 nM
